Data from publication PMC8585690 (Toxicology, 2021).

Experiment: Literature-based in vivo clinical clearance, AUC and bioavailability

Cc1ccc(C(=O)c2cc(O)c(O)c([N+](=O)[O-])c2)cc1 [Tolcapone]
mean oral clearance adjusted for absorption (human, oral, mean of all available values, adjusted for incomplete absorption): 6.64 L/h
extraction ratio (i.v. clearance 7.1 L/hr / hepatic blood flow 87 L/hr): 0.082
